Results: patent US7932279B2 (ArQule, Inc., priority 2007, dated 2011)

Target: HSP90α (Homo sapiens, UniProt P07900)
Assay: HSP90 binding assay (fluorescent ELISA, competition with biotinylated Geldanamycin)

In the case of `C=CCNC1=C2C[C@@H](C)C[C@H](OC)[C@H](O)[C@@H](C)/C=C(\C)[C@H](OC(N)=O)[C@@H](OC)/C=C\C=C(/C)C(=O)NC(=CC1=O)C2=O` [Compound 17-AAG, 17-Allylamino-17-demethoxygeldanamycin, reference compound], the “inhibition in the HSP90 binding assay (validation with known inhibitors)” value is reported as “appropriate rank order of inhibition”.
